Laboratory results reported in ChEMBL document CHEMBL2062477, “Dual-Specificity Phosphatase CDC25A/B Inhibitor Identified from a Focused Library with Nonelectrophilic Core Structure” (ACS Med Chem Lett, 2012).

Tests used:
[1] = molecular target: T1, M-phase inducer phosphatase 2 (Homo sapiens, UniProt P30305); test: Inhibition of CDC25B
T1 sequence (P30305 whole entry): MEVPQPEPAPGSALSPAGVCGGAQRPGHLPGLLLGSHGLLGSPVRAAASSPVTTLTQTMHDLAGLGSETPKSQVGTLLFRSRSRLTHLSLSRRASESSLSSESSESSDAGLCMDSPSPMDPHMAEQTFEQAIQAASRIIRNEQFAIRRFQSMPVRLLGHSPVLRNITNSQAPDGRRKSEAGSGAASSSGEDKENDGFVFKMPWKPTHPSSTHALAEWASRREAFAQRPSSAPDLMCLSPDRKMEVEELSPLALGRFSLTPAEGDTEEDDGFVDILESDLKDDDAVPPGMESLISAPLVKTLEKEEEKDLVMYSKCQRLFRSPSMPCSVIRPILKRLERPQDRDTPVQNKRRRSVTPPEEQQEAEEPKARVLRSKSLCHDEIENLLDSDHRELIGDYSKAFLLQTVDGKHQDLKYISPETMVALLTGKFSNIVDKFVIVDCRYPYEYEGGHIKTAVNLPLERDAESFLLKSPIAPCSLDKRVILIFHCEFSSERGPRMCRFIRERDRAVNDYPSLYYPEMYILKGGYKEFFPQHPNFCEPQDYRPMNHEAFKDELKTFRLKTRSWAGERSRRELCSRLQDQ

[2] = molecular target: T1, M-phase inducer phosphatase 2; test: Inhibition of CDC25B in presence of 2 mM DTT

Compound: CCCCCCCCCCCCCCCC(NCc1ccccc1O)=C1C(=O)OC(CO)C1=O (mixture of isomers)
- IC50 [1]: 4.26 µM
- IC50 [2]: 4.26 µM
